Measurements reported in patent publication US20180177872A1, “Combination of PD-1 antagonist with an EGFR inhibitor” (priority 2015, published 2018).

Chains of the proteins cited; added tags and fusions are not shown.
UniProt Q08881, whole entry, species assumed: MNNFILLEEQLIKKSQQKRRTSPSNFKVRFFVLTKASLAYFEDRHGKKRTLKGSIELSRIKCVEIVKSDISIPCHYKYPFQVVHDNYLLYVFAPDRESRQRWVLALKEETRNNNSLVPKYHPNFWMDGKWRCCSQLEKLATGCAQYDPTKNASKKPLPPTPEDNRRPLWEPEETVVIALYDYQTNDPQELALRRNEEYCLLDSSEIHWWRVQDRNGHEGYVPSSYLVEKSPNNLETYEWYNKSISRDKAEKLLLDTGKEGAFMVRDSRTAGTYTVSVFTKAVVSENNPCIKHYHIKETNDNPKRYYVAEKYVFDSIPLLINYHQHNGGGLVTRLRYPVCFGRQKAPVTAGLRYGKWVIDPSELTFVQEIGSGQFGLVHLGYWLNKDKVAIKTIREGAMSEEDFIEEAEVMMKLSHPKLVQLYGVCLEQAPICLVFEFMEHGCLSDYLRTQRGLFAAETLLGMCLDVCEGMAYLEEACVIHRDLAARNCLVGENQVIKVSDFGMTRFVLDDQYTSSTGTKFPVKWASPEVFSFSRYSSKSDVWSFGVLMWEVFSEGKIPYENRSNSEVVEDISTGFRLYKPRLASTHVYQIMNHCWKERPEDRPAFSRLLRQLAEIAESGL

Key:
ITK [1] = biological target: T1, ITK (Homo sapiens, UniProt Q08881); assay: biochemical
ITK [2] = biological target: T1, ITK; conditions: Biochemical

Structure (SMILES): Cc1cc(C(=O)Nc2nc3cccc(Cl)c3n2[C@@H]2CCCCN(C(=O)/C=C/CN(C)C)C2)ccn1 [Compound A, (R,E)-N-(7-chloro-1-(1-(4-(dimethylamino)but-2-enoyl)azepan-3-yl)-1Hbenzo[d]imidazol-2-yl)-2-methylisonicotinamide]
- IC50 (ITK [1]): 1.3 nM
- IC50, ITK (ITK [2]): single digit nM
